Results taken from PubChem BioAssay AID489035 (Sanford-Burnham Center for Chemical Genomics, 2010).
Calls of active or inactive are those of the source. No rule for the calls is given here.

System: Jurkat NF-kB reporter, TCR-induced, luciferase luminescence
Assay: inhibitors of TCR-driven NF-kB activation, dose response, Jurkat cells, luminescence (AID 489035)

**Q.** With `Cc1ccnc2c1ccc1cccnc12` as the compound, how does the IC50 read?
**A.** 12.9 µM

**Q.** Which IC50 does the source give for `O=c1c2ccccc2nc(/C=C/c2ccc([N+](=O)[O-])o2)n1-c1ccc(O)cc1` here?
**A.** 1.7 µM

**Q.** How did the IC50 turn out when `CC[n+]1c(/C=C/N(C)c2ccccc2)oc2ccccc21` was run?
**A.** inactive: > 80 µM
